From patent US11578084B2, “Condensed ring compounds having dopamine D3 receptor antagonistic effect” (Shionogi & Co., Ltd., priority 2018, dated 2023)

The chains behind the UniProt entries cited, without tags or fusion partners.
UniProt P35462, whole entry: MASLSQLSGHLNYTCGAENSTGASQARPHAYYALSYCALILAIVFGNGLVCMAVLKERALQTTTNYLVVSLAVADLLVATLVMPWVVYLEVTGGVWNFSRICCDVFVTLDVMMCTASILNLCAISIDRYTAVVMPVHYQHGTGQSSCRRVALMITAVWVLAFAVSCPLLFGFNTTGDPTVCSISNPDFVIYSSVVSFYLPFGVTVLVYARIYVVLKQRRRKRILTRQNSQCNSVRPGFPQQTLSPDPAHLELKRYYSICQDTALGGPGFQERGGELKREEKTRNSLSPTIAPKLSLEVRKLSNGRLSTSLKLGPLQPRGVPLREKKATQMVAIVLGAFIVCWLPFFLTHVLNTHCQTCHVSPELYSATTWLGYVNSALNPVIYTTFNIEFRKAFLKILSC
UniProt P14416, whole entry: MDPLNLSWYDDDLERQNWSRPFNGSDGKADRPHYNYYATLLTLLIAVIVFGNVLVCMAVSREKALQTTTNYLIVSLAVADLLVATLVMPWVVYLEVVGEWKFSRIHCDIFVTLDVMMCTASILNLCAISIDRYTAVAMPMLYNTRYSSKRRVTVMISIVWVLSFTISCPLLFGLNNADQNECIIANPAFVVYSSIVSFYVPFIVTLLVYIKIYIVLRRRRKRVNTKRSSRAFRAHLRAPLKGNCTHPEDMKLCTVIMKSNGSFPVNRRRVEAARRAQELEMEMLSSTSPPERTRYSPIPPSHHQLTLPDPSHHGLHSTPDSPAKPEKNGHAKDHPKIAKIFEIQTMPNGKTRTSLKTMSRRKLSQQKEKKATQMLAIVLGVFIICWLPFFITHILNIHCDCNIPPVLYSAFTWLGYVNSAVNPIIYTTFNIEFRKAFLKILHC

Legend:
[1] = biological target: human recombinant dopamine D3 receptor (Homo sapiens (Human), UniProt P35462); test: Test of binding inhibition for dopamine D3 receptor ([3H]-Methylspiperone SPA); settings: read-out: hD3_Ki; Jump-In HEK cell membranes, 2 nM [3H]-Methylspiperone, 120 min at 25° C.
[2] = biological target: human recombinant dopamine D2 receptor (Homo sapiens (Human), UniProt P14416); test: Test of binding inhibition for dopamine D2 receptor ([3H]-Methylspiperone SPA); settings: read-out: hD2_Ki; [3H]-Methylspiperone 1.2 nM, Jump-In HEK cell membranes

Cn1cc(CC(=O)N[C@H]2CC[C@](F)(CCN3CCc4ccc(OCC(F)F)nc4CC3)CC2)c(F)n1 gave a Ki [1] of 0.15 nM and a Ki [2] of 1600 nM.
